An excerpt weighted towards active compounds, which were near 1.3% of everything screened.
ARNT-TACC3 inh: disruptors of human ARNT/TACC3 interaction. Q9Y6A5. AlphaScreen His-ARNT PAS-B/GST-TACC3 binding, luminescence; TACC3 fragment carries E629A point mutation. inhibition, % at 9.99 µM. hit rate 0.66% among 390,000. AID 623870;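 active = mean inhibition of replicates at least 50% and at least half of replicates each reaching 50%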;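 note: 0% = complete ARNT plus TACC3 wells and 100% = ARNT alone without TACC3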
AF4-AF9 inh: inhibitors of human MLL-AF4/AF9 interaction | P42568 | AlphaScreen, biotin-AF4 peptide binding to FLAG-AF9 | inhibition, % at 10 µM | hit rate 0.47% among 350,000;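 active = every replicate reaching a set inhibition limit, whatever the replicate mean, cut at about 25% in these data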;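 note: 0% = plate neutral control median and 100% = total signal loss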
E-sel inducer: induces E-selectin expression in human endothelial cells; P16581; HUVEC E-selectin immunofluorescence imaging; normalized: neutral wells 0, TNF-alpha wells 100; activation, % at 7.58 µM; hit rate 0.37% among 260,000; AID 686992;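 active = mean E-selectin-positive cell signal at least 10% of the positive control, reached in at least 60% of replicates, without over 20% cell loss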
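Read-out basis: % PE-positive cells; Test system: HUVEC primary endothelial cells; Technique: immunofluorescence imaging; Dosing: single-point compound dose.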
S100A4 MyoIIA: inhibitors of human S100A4 binding to myosin IIA peptide. inhibition, % at 10.7 µM. S100A4/TAMRA-MyoIIA peptide fluorescence polarization. P26447. hit rate 0.14% among 360,000;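 active = mean inhibition of at least 70% across replicates, with every replicate also reaching that level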
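Material: S100A4 monomer protein / Buffer or medium: 50 mM HEPES pH 7.2, 10 mM CaCl2, 100 mM KCl / Times: 5 min incubation before reading / Benchmarks: neutral control DMSO, positive control TFP / Reagent: labelled myosin peptide probe, 5 nM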
UUG fidelity: alters start codon recognition fidelity in yeast. S. cerevisiae UUG-firefly luciferase reporter, luminescence/redox ratio. activity score, % at 18.7 µM. 0.13% of 350,000 active. AID 602363;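 active = replicate mean at a twofold rise or more, about +100% in these data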;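 also: firefly luciferase made from a UUG start codon reports start codon fidelity; reporter light over untreated wells divided by growth signal over untreated wells; some hits fall short of that in this replicate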
ERAP1 HTS inh: ERAP1 (human) enzyme inhibition. Q9NZ08. recombinant ERAP1, Leu-AMC fluorescence, 60 min. inhibition, % at 10.7 µM. hit rate 0.15% among 340,000;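 active = mean replicate inhibition of at least 30%, or all replicates individually reaching that 30% level; inactive = mean below 30% and not every replicate reaching it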;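 note: 0% = neutral control wells and 100% = L-leucinethiol positive control wells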
* = called active by the depositor.

Screening CNC(=O)C[C@@H]1CC[C@H]2[C@H](COc3ccc(NC(=O)Nc4cccc(F)c4)cc3C(=O)N2C)O1 returned ARNT-TACC3 inh 6, E-sel inducer 0 and UUG fidelity 11.
`CC(=O)Nc1ccc(Oc2nc(-c3ccccn3)nc3ccccc23)cc1` gave ARNT-TACC3 inh 58*, AF4-AF9 inh -2, S100A4 MyoIIA -7 and ERAP1 HTS inh 2.
For CC(=O)Nc1cccc(Oc2nc(-c3ccccn3)nc3ccccc23)c1 the results were ARNT-TACC3 inh 48*, AF4-AF9 inh -2, S100A4 MyoIIA -7 and UUG fidelity -33.
Screening CC(=O)Nc1ccc(Oc2ncccn2)cc1 returned ARNT-TACC3 inh -2.
Screening COCC(=O)N[C@@H]1CC[C@H](CC(=O)NCc2ccccc2OC)O[C@@H]1CO returned ARNT-TACC3 inh 1, AF4-AF9 inh -11, E-sel inducer 0, S100A4 MyoIIA 1, UUG fidelity -17 and ERAP1 HTS inh 4.
O=C(c1cncc(Br)c1)N1CCN(S(=O)(=O)c2ccccc2C(F)(F)F)CC1 was read as ARNT-TACC3 inh 0, AF4-AF9 inh -1, E-sel inducer 33*, S100A4 MyoIIA -2 and ERAP1 HTS inh -1.
For O=C(c1cncc(Br)c1)N1CCN(S(=O)(=O)c2ccccc2)CC1 the results were ARNT-TACC3 inh -2, AF4-AF9 inh -1, S100A4 MyoIIA -6, UUG fidelity -3 and ERAP1 HTS inh 7.
CO[C@@H]1CN(C)C(=O)c2ccc(NC(=O)NC(C)C)cc2OC[C@H](C)N(C(=O)CC2CC2)C[C@@H]1C was read as AF4-AF9 inh -2 and E-sel inducer 0.
For N#C[C@@H]1[C@@H](c2ccccc2-c2cccc(F)c2)[C@H](CO)N1C(=O)C1CCCCC1 the results were AF4-AF9 inh -2, E-sel inducer 0, S100A4 MyoIIA -7 and ERAP1 HTS inh 0.
COc1cc(OC)cc(C(=O)NC(=S)NNC(=O)c2cnccn2)c1 was read as ARNT-TACC3 inh 66*, AF4-AF9 inh -8, S100A4 MyoIIA 14, UUG fidelity -39 and ERAP1 HTS inh 2.
Screening COc1ccc(C(=O)NC(=S)NNC(=O)c2cnccn2)cc1OC returned ARNT-TACC3 inh 63* and UUG fidelity -3.
O=C(/C=C/c1ccccc1)NC(=S)NNC(=O)c1cccnc1 was read as ARNT-TACC3 inh 29, E-sel inducer -1 and UUG fidelity -32.
Screening O=C(/C=C/c1ccccc1)NC(=S)NNC(=O)c1cnccn1 returned ARNT-TACC3 inh 60*, AF4-AF9 inh -2, S100A4 MyoIIA 2 and UUG fidelity -46.
COc1ccc(S(=O)(=O)N(C)C[C@H]2Oc3ccc(NS(C)(=O)=O)cc3CC(=O)N([C@@H](C)CO)C[C@@H]2C)cc1 was read as ARNT-TACC3 inh 1, AF4-AF9 inh -2, S100A4 MyoIIA 5, UUG fidelity -7 and ERAP1 HTS inh 0.
For C[C@H](CO)N1C[C@H](C)[C@@H](CN(C)C(=O)Cc2ccccn2)Oc2ncc(C#CC3CCCCC3)cc2C1=O the results were ARNT-TACC3 inh -2, AF4-AF9 inh 6, E-sel inducer -3, S100A4 MyoIIA 6, UUG fidelity 10 and ERAP1 HTS inh -2.
For COc1ccc(-c2ccc(-c3nc4c(c(=O)[nH]c(=O)n4Cc4ccccc4)n3C)o2)c([N+](=O)[O-])c1 the results were ARNT-TACC3 inh 24*, AF4-AF9 inh 0, E-sel inducer 0, S100A4 MyoIIA -19, UUG fidelity -8 and ERAP1 HTS inh -1.
COCCn1c(=O)[nH]c(=O)c2c1nc(-c1ccc(-c3ccc(Cl)cc3[N+](=O)[O-])o1)n2Cc1ccccc1 was read as ARNT-TACC3 inh -6, AF4-AF9 inh 8, S100A4 MyoIIA -4 and ERAP1 HTS inh 2.
Screening O=C(C[C@@H]1CC[C@@H](NS(=O)(=O)c2ccc(F)cc2)[C@@H](CO)O1)N1CCc2ccccc2C1 returned ARNT-TACC3 inh -4, AF4-AF9 inh 1, E-sel inducer 2, S100A4 MyoIIA 9, UUG fidelity -2 and ERAP1 HTS inh -3.
For N#Cc1c(NC(=O)c2cccc(S(=O)(=O)Nc3ccc(C(=O)O)cc3)c2)sc2c1CCCC2 the results were ARNT-TACC3 inh 8, AF4-AF9 inh -4, E-sel inducer 0, S100A4 MyoIIA 1 and ERAP1 HTS inh 43*.
`Cc1cc(C(=O)Nc2sc3c(c2C#N)CCCCC3)cs1` gave ARNT-TACC3 inh 2, AF4-AF9 inh 8, S100A4 MyoIIA 3, UUG fidelity -30 and ERAP1 HTS inh 3.

A draw from above in order of heavy-atom count, low to high.
Screening O=C(/C=C/c1ccccc1)NC(=S)NNC(=O)c1cnccn1 returned ARNT-TACC3 inh 60*, AF4-AF9 inh -2, S100A4 MyoIIA 2 and UUG fidelity -46.
COCCn1c(=O)[nH]c(=O)c2c1nc(-c1ccc(-c3ccc(Cl)cc3[N+](=O)[O-])o1)n2Cc1ccccc1 was read as ARNT-TACC3 inh -6, AF4-AF9 inh 8, S100A4 MyoIIA -4 and ERAP1 HTS inh 2.
For C[C@H](CO)N1C[C@H](C)[C@@H](CN(C)C(=O)Cc2ccccn2)Oc2ncc(C#CC3CCCCC3)cc2C1=O the results were ARNT-TACC3 inh -2, AF4-AF9 inh 6, E-sel inducer -3, S100A4 MyoIIA 6, UUG fidelity 10 and ERAP1 HTS inh -2.

Following part:
`COc1ccc(S(=O)(=O)Nc2ccc3c(c2)C(=O)N(C)C[C@@H](OC)[C@H](C)CN(C)[C@H](C)CO3)cc1` gave ARNT-TACC3 inh -5, AF4-AF9 inh -1, E-sel inducer 0, S100A4 MyoIIA -4, UUG fidelity 7 and ERAP1 HTS inh 3.
For COc1ccc(N2CCN(Cc3cc4c(cc3Br)OCCO4)CC2)cc1 the results were ARNT-TACC3 inh 34, AF4-AF9 inh 27*, S100A4 MyoIIA -5, UUG fidelity 5 and ERAP1 HTS inh -2.
`COc1ccccc1N1CCN(Cc2cc3c(cc2Br)OCCO3)CC1` gave ARNT-TACC3 inh 12, AF4-AF9 inh 4, S100A4 MyoIIA -3, UUG fidelity -13 and ERAP1 HTS inh 1.
`Cc1ccc(S(=O)(=O)N[C@@H]2CC[C@@H](CC(=O)NCCc3ccncc3)O[C@H]2CO)cc1` gave AF4-AF9 inh 0, E-sel inducer -1, S100A4 MyoIIA 24, UUG fidelity 0 and ERAP1 HTS inh -1.
COc1ccc(NC(=O)c2cc(S(=O)(=O)N3CCCCC3)c[nH]2)cc1 was read as ARNT-TACC3 inh 6, AF4-AF9 inh 2, E-sel inducer 111*, S100A4 MyoIIA 1 and UUG fidelity 7.
For CCCNC(=O)N1C[C@@H]2[C@H](c3ccccc31)[C@@H](CO)N2Cc1ccccc1F the results were ARNT-TACC3 inh -4, AF4-AF9 inh -1, E-sel inducer 0, S100A4 MyoIIA -2, UUG fidelity -20 and ERAP1 HTS inh -3.
CN(C)NC(=S)Nc1ccc2nc(-c3ccccn3)c(-c3ccccn3)nc2c1 was read as ARNT-TACC3 inh 73* and UUG fidelity -27.
Screening OCCCNC(=S)Nc1ccc2nc(-c3ccccn3)c(-c3ccccn3)nc2c1 returned ARNT-TACC3 inh 60* and UUG fidelity 11.
`O=C(O)C1Nc2c(O)cccc2C2C=CCC12` (stereo not drawn) gave ARNT-TACC3 inh 75*, AF4-AF9 inh 5, S100A4 MyoIIA -2 and ERAP1 HTS inh -4.
For C[C@@H]1CN([C@H](C)CO)C(=O)c2c(c3ccccc3n2C)-c2ccccc2CO[C@@H]1CN(C)S(=O)(=O)c1ccc(Cl)cc1 the results were ARNT-TACC3 inh 10, AF4-AF9 inh 5, E-sel inducer 0, S100A4 MyoIIA 12, UUG fidelity -11 and ERAP1 HTS inh 2.

Screening data as filed in PubChem.
